Measured values published in ChEMBL document CHEMBL1147615, “Design and synthesis of novel small molecule N/OFQ receptor antagonists” (2004).

Chains of the proteins cited; added tags and fusions are not shown.
UniProt P35372, whole entry: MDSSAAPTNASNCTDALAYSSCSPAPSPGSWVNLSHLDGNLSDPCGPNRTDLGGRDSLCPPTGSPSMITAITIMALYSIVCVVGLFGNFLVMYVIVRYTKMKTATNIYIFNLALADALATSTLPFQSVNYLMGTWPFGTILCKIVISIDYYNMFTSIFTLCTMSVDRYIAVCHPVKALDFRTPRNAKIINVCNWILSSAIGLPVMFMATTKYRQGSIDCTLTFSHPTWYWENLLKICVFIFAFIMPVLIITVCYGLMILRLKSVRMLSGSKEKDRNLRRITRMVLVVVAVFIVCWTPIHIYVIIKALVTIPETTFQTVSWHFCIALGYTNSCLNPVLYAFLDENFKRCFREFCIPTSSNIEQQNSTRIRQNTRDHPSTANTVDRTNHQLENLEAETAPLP
UniProt P41146, whole entry: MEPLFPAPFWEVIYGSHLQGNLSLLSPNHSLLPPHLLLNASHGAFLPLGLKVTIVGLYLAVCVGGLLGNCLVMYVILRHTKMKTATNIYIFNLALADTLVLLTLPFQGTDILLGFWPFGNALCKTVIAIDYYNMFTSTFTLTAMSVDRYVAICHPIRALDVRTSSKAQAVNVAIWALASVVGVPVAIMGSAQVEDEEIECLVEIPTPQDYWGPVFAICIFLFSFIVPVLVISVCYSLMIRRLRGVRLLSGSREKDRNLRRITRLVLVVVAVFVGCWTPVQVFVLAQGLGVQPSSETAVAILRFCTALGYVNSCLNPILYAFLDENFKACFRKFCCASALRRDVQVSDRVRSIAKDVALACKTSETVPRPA

How the values were obtained:
[1] = target: Mu-type opioid receptor (Homo sapiens) (UniProt P35372); assay: Activity was determined for the compound against the Mu opioid receptor by GTPgammaS functional assay using recombinant HEK293 cells; PA: Partial antagonist; conditions: filed as antagonist
[2] = target: Nociceptin receptor (Homo sapiens) (UniProt P41146); assay: Activity on Nociceptin/orphanin FQ (N/OFQ) receptor was determined by GTPgammaS functional assay using recombinant HEK293 cells; conditions: filed as agonist

In the case of `O=C1N[C@@H]2CCCC[C@H]2N1C1CCN(CCC(c2ccccc2)c2ccccc2)CC1`, the Activity [1] is reported as “Partial antagonist” and the Activity [2] is reported as “Agonist”.
